Results taken from US12428446B2, “Peptide compound or pharmaceutically acceptable salt thereof” (Eyebio Korea, priority 2019, dated 2025).

Assay: Evaluation of dissolution stability (content change on storage in dissolved state)
Format: physicochemical
Conditions: 1 mg/1 ml dissolved state, 40° C. and RH 75%

Day 1 content (%) (day 1): 89.07%
Day 3 content (%) (day 3): 78.54%
Day 7 content (%) (day 7): 56.03%
Initial content (%) (initial): 99.11%
Substance: 4-methylene-Pro-Gly-Gln-Asp-Gly [Example 44]
